Measurements published in patent US11274108B2 (priority 2015, dated 2022).

Protein sequences, listed by entry. Tags and fused reporters are not part of them. Residues count along the entry.
UniProt P07333, 20-972: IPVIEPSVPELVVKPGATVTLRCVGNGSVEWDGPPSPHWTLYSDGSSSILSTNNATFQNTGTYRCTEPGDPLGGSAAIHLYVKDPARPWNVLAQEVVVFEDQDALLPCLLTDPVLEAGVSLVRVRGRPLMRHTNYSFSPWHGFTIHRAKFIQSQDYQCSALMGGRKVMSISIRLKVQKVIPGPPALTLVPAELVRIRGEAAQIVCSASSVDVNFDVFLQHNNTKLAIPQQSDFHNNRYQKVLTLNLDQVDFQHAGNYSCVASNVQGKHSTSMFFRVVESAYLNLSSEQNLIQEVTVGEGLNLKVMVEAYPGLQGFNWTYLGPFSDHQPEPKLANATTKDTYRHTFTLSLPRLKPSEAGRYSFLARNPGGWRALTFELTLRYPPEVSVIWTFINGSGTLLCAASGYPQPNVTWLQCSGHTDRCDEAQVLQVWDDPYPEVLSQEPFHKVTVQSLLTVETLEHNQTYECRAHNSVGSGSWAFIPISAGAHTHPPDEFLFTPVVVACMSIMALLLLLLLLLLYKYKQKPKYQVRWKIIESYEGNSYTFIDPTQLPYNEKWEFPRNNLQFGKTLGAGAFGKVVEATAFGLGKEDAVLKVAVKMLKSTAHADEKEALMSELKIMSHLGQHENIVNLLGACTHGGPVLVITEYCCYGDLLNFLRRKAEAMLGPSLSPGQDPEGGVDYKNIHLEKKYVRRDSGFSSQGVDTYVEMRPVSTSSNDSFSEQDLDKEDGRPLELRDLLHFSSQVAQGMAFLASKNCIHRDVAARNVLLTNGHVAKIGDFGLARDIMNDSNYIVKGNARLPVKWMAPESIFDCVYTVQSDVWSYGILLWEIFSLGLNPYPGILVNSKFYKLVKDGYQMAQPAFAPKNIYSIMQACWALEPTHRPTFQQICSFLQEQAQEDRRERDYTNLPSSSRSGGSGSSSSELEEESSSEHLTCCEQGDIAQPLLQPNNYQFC

How the values were obtained:
human cFMS = human cFMS (Homo sapiens (Human), UniProt P07333); experiment: cell-based
[1] = tested on: TNFα, CSF-1R, Arg1, IL-6, Ym1 and MCP-1 gene expression in spinal cord; details: mouse, in vivo
MCP-1 = details: mouse, in vivo
IL-6 = details: mouse, in vivo
IL-1β = details: mouse, in vivo
IP-10 = details: mouse, in vivo
TGF-β1 = details: mouse, in vivo
TNF-α = details: mouse, in vivo
MCSF = details: mouse, in vivo
RANTES = details: mouse, in vivo
IL-12p40 = details: mouse, in vivo
IL-10 = details: mouse, in vivo
[2] = tested on: Chitinase 3-Like 3/ECF-L (YM-1); details: mouse, in vivo
BDNF = details: mouse, in vivo
[3] = tested on: MOG-Induced NOD Progressive EAE Model; details: mouse, in vivo

SMILES | IC50 (human cFMS) [nM] | gene expression of Arg1 in spinal tissue [1] | gene expression of IL-6 in spinal tissue [1] | gene expression of MCP-1 in spinal tissue [1] | gene expression of TNFα in spinal tissue [1] | gene expression of Ym-1 in spinal tissue [1] | MCP-1 levels in spinal cord homogenates (MCP-1) | IL-6 levels in spinal cord homogenates (IL-6) | IL-1β levels in spinal cord homogenates (IL-1β) | IP-10 levels in spinal cord homogenates (IP-10) | levels of TGF-β (TGF-β1) | TNF-α levels in the spinal cord (TNF-α) | MCSF levels (MCSF) | RANTES levels (RANTES) | IL-12p40 levels (IL-12p40) | IL-10 levels (IL-10) | Ym-1 levels [2] | BDNF levels (BDNF) | reduction in axonal damage [3] [%] | reduction in demyelination [3] [%]
COc1ccc(C2CSc3cc(Cn4cnc5cc(C#CC(C)(C)N)cnc54)ccc3O2)cn1 (centres unmarked) [Example 1-251, 4-(3-((2-(6-methoxypyridin-3-yl)-2,3-dihydrobenzo[b][1,4]oxathiin-6-yl)methyl)-3H-imidazo[4,5-b]pyridin-6-yl)-2-methylbut-3-yn-2-amine] | 300 | – | – | – | – | – | – | – | – | – | – | – | – | – | – | – | – | – | – | –
COc1ccc(C2COc3cc(Cn4cnc5cc(C#CC(C)(C)N)cnc54)ccc3O2)cn1 (centres unmarked) [Genz-882706, 4-(3-((2-(6-methoxypyridin-3-yl)-2,3-dihydrobenzo[b][1,4]dioxin-6-yl)methyl)-3H-imidazo[4,5-b]pyridin-6-yl)-2-methylbut-3-yn-2-amine] | – | trend towards decreased gene expression | trend towards decreased gene expression | trend towards decreased gene expression | trend towards decreased gene expression | trend towards up-regulation | significant decreases | significant decreases | significant decreases | significant decreases | trend towards decreased levels | significant increase | no effects | no effects | no effects | trend towards increased IL-10 levels | vehicle control had significantly increased Ym-1 levels when compared to either the naïve control or Genz-882706 treated groups | not affected | > 40 | > 40
